# Laboratory results: publication PMC8290231, “GZD824 overcomes FGFR1‐V561F/M mutant resistance in vitro and in vivo” (Cancer Medicine, 2021)
# Chains of the proteins cited; added tags and fusions are not shown. Residues count along the entry.
# UniProt P11362, 22-822: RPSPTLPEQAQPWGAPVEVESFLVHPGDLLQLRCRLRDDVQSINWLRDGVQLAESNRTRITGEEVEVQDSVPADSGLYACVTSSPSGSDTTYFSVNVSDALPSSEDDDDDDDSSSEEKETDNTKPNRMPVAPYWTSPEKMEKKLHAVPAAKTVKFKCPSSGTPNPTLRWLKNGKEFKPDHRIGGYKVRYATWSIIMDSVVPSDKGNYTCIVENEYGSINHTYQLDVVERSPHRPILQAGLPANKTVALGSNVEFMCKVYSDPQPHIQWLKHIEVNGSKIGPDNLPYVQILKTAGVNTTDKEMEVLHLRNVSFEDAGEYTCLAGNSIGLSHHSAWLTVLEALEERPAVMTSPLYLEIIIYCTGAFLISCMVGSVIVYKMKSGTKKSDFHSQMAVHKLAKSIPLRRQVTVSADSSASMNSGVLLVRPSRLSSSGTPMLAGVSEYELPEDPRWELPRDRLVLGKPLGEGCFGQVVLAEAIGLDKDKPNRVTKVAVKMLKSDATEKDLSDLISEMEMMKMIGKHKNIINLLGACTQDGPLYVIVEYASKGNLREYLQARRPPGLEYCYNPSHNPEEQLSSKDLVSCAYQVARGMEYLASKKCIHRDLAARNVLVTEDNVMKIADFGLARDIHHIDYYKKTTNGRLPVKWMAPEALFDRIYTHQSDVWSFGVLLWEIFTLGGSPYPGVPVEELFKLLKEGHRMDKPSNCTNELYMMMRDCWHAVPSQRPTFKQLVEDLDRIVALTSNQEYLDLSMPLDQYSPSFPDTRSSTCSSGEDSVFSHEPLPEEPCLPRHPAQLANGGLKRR
# Target: T1, FGFR1 (Homo sapiens, UniProt P11362)
# T1 construct: purchased Invitrogen (Waltham, MA, USA)
# Experiment: Cellular thermal shift assay (CETSA) in H1581 cells
# Format: binding
# Details: 1 μM, 38.0 to 57.8℃
smiles,measurement,value
Cc1ccc(C(=O)Nc2ccc(CN3CCN(C)CC3)c(C(F)(F)F)c2)cc1C#Cc1cnc2[nH]ncc2c1 [GZD824],thermal stability of FGFR1 protein (CETSA),significantly enhanced
